Earlier results on one substance are cited in EP0632082B1, “Preparation of activated carbamates of poly(alkylene glycol) and their use” ("HEYLECINA", Société Anonyme, priority 1993, dated 1995).

The conditions of series [1]: i.v. administered, compared with rIL-2.
For series [2] the following is noted: in vivo.
For series [3] the following is noted: aqueous solutions at physiological pH.

In the case of “PEG-rIL-2: rIL-2 with chemical grafting of 2 to 3 poly(ethylene glycol) (PEG) chains (7 kDa each)”, in series [1], the antitumoral activity result is recorded as “significantly higher antitumoral activity than rIL-2”. Besides, in series [2], the immunogenicity entry was “reduced immunogenicity”. The solubility result in series [3] is “enhanced solubility”.
